Source: patent US8415367B2, “Pyrimidinylpiperidinyloxypyridinone analogues as GPR119 modulators” (Bristol-Myers Squibb Company, priority 2010, dated 2013)

By UniProt entry, the sequences of proteins in these tests, tags left out. Chains listed by the source or under a name are the forms on record and can include a tag or linker. Residues count along the entry.
UniProt Q8TDV5, 1-329 with tags or gaps with the stated changes limits assumed: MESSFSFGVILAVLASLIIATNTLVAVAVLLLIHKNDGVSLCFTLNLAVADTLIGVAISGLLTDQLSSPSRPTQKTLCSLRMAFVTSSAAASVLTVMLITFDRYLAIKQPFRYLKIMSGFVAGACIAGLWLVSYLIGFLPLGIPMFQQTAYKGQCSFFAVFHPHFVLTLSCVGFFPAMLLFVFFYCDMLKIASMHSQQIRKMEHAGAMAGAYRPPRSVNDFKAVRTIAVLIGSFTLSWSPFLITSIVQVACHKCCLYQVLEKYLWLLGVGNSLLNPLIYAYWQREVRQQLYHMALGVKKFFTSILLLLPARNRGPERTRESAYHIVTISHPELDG

Tests used:
[1] = Metabolic stability in liver microsomes test; conditions: tested form: TFA
[2] = target: human-mouse chimeric GPR119 (Homo sapiens, UniProt Q8TDV5, A235T/C313R/C323Y/E253K/F304I/F307L/G211A/G245S/H255C/K284R/L224V/L258Q/L288Q/L301F/P218V/P318T/Q252H/R262K/S214P/S219N/S228A/S309P/S322A/T217S/T239S/V227I/V300F); assay: Tet-inducible cAMP assay (cAMP accumulation, HTRF); conditions: read-out: GPR119 EC50, Flp-In-T-Rex-HEK293 cells expressing chimeric human/mouse GPR119, tested form: TFA
[3] = test system: male C57BL/6J mice; assay: Mouse oral glucose tolerance test; conditions: tested form: TFA
Description: Mouse Oral Glucose Tolerance Test
Twenty four (24) male C57BL/6J mice (8-10 weeks old, average weight 28 g) were randomized into 4 groups (1 mouse/cage) of 6 mice per group based on fed plasma glucose and body weight. Prior to initiating the study, mice were fasted overnight and the next morning they were weighed and placed in the experimental lab. After 30 min in the environment, the mice were bled via tail tip at −60 min and immediately given their first oral administration of vehicle (40% PEG400, 10% Cremophor EL, 50% water) or compound solutions (5 ml/kg). At time 0 the mice were bled and given 50% glucose (2 g/kg) to initiate the oral glucose tolerance test (oGTT). The mice were bled 30, 60 and 120 min after the glucose load. Blood samples were drawn into potassium EDTA, placed on ice during the study and subsequently centrifuged for 10 min at 3000 rpm at 4° C. Plasma samples were diluted 11-fold for glucose analysis in the COBAS MIRA® System (Roche Diagnostics). Area under the curve was calculated from the plasma glucose time course data using the trapezoid rule with fasting plasma glucose as the baseline (GraphPad Prism Software). The statistical significance of the changes in the glucose AUCs resulting from the different treatments was determined by one-way ANOVA followed by Dunnett's test using the vehicle group as the control (JMP software, release 5.1.2).
Find below in Table 6 data for compared compounds (See WO 2009/012275 A1).

Compound: CCCc1cnc(N2CCC(Oc3cc(=O)n(-c4ccc(S(C)(=O)=O)c(F)c4)cc3Cl)CC2)nc1
- times less stable (half-life) than Example 1 of the present invention ([1]; human liver microsome half-life ratio): 45 times
- Human Liver Microsome Half-life ([1]; human liver microsomes, NADPH, 37° C., 0.5 μM compound): 4 min
- EC50 [2]: 4 nM
- reduction in glucose ([3]; at the stated dose (0.1 mg/kg Example 1; 0.3 mg/kg Example 224 of WO 2009/012275 A1)): 30%
- Minimally efficacious Dose ([3]; oral, given 60 min before glucose load (2 g/kg), oGTT in C57BL/6J mice): 0.3 mg/kg
- Glucose Lowering ([3]; plasma glucose AUC change vs vehicle at the minimally efficacious dose, oral): −30%
- times less effective in reducing glucose than Example 1 of the present invention ([3]; ratio of doses 0.3 mg/kg vs 0.1 mg/kg): three
